This test has as its target Acetylcholinesterase (Homo sapiens, UniProt P22303). The test is described as follows: Inhibition of human AChE using acetylthiocholine as substrate after 4 hrs by robotic spectrophotometric assay.

By UniProt entry, the sequences of proteins in these tests, tags left out. Residues count along the entry.
UniProt P22303, 32-614 limits assumed: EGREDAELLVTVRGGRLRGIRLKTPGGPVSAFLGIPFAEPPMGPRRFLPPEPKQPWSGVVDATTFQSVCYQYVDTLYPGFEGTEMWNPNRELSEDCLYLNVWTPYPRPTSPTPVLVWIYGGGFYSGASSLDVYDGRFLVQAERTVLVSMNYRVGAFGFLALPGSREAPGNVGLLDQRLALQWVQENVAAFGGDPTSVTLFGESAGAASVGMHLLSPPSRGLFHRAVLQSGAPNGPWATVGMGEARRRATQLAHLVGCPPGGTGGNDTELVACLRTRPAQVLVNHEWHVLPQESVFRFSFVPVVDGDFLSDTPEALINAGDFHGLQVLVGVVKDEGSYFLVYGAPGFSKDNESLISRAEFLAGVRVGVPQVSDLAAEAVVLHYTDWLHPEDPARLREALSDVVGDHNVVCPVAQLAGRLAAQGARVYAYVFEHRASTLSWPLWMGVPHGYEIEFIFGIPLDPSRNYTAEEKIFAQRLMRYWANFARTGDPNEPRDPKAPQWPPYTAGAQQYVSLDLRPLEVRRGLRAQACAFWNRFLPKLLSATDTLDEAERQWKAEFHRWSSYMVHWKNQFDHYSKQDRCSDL

Results on 24 compounds are retold here after BindingDB's records for 24630558.

One may read the Ki as a dissociation constant, usually derived from enzyme kinetics or from competition with a known ligand. A high value points to weaker binding.

`COc1cc2c(cc1OC)C(c1ccccc1)N(CCCNC(=O)/C=N/O)CC2` (centres undefined) showed an inhibitory constant (Ki) of 595 µM.

The compound `COc1cc2c(cc1OC)CN(CCCNC(=O)/C(=N/O)C(C)=O)CC2` returned an inhibition constant Ki of 2670 µM.

With `O/N=C/c1ccc(OCC2CCN(Cc3ccccc3)CC2)nc1`, the inhibition constant (Ki) was found to be 266 µM.

For the compound `O=C(/C=N/O)c1ccnc(OCC2CCN(Cc3ccccc3)CC2)c1`, the Ki was found to be 144 µM.

Compound `COc1ccc(CN2CCCCC2COc2ccc(C(=O)/C=N/O)cn2)cc1OC` (centres undefined) had a Ki of 233 µM.

Compound `N#C/C(=N\O)C(=O)NC1CCN(Cc2ccccc2)CC1` had an inhibition constant Ki of 732 µM.

`COc1ccc(CN2CCC(COc3ccc(C(=O)/C=N/O)cn3)CC2)cc1OC` yielded a Ki of 1930 µM. Compared with the last compound, the Ki is about 2.6-fold higher.

The compound `O=C(/C=N/O)c1cccc(OCC2CCN(Cc3ccccc3)CC2)n1` showed a Ki of 199 µM.

`O=C(/C=N/O)c1ccc(NCC2CCN(Cc3ccccc3)CC2)nc1` displayed a Ki of 286 µM.

In the case of `COc1cc2c(cc1OC)C(c1ccccc1)N(CCCNC(=O)/C(=N/O)C(C)=O)CC2` (centres undefined), the Ki turned out to be 1930 µM.

`O=C(/C=N/O)c1ccc(OCC2CCN(Cc3ccc(F)c(F)c3)CC2)nc1` displayed a Ki of 159 µM.

In the case of `CC(=O)/C(=N\O)C(=O)NC1CCN(Cc2ccccc2)CC1`, the Ki worked out at 234 µM.

With `COc1ccc(CN2CCC(CNC(=O)/C(=N/O)C(C)=O)CC2)cc1OC`, the Ki was 1620 µM.

In turn, `O=C(/C=N/O)c1cccnc1OCC1CCN(Cc2ccccc2)CC1` yielded a Ki of 180 µM.

The compound `O=C(/C=N/O)c1ccc(OCC2CCN(Cc3ccccc3)C2)nc1` (centres undefined) yielded a Ki of 137 µM.

`CC(=O)/C(=N\O)C(=O)NCC1CCN(Cc2ccccc2)CC1`: the affinity, expressed as Ki, was 2300 µM.

The compound `N#Cc1ccc(CN2CCC(COc3ccc(C(=O)/C=N/O)cn3)CC2)cc1` returned a Ki of 1610 µM.

`O=C(/C=N/O)c1ccc(OCC2CCCCN2Cc2ccccc2)nc1` (centres undefined) showed an inhibition constant (Ki) of 551 µM.

Compound `O=C(/C=N/O)c1ccc(OCC2CCN(Cc3cccc(Cl)c3)CC2)nc1` showed an inhibitory constant (Ki) of 298 µM.

Turning to `O=C(/C=N/O)NCC1CCN(Cc2ccccc2)CC1`, the inhibition constant Ki was found to be 3180 µM.

`O=C(/C=N/O)NC1CCN(Cc2ccccc2)CC1`: affinity was put at a Ki of 2430 µM.

With `O/N=C/c1cnc(OCC2CCN(Cc3ccccc3)CC2)nc1`, affinity was put at a Ki of 198 µM.

For `COc1ccc(CN2CCCC(COc3ccc(C(=O)/C=N/O)cn3)C2)cc1OC` (centres undefined), the affinity, expressed as Ki, was 345 µM.

Turning to `COc1ccc(CN2CCC(COc3ccc(C(=O)/C=N/O)cn3)C2)cc1OC` (centres undefined), the Ki came to 2520 µM.
